Experimental data: patent EP4636093A1, “TARGETING MAPK-ERK PATHWAY FOR ENHANCING NUCLEIC ACID DELIVERY” (priority 2024, dated 2025)

System: T cells
Assay type: cell-based, Human

Deucravacitinib
viability (400 nM, CD4-LV and CD8-LV, 3 days after transduction, three donors): without compromising viability | effect on T cell viability (various doses, all vector-treated groups compared to untreated samples): no negative effect
